Key:
[1] = target: T1, CRF2R (Homo sapiens, UniProt Q13324); assay: CRF2R agonist activation (EC50 / Emax), called comparative CRF binding; type: cell-based; conditions: for Emax: read-out: CRF2R Emax
T1 sequence (Q13324 1-411): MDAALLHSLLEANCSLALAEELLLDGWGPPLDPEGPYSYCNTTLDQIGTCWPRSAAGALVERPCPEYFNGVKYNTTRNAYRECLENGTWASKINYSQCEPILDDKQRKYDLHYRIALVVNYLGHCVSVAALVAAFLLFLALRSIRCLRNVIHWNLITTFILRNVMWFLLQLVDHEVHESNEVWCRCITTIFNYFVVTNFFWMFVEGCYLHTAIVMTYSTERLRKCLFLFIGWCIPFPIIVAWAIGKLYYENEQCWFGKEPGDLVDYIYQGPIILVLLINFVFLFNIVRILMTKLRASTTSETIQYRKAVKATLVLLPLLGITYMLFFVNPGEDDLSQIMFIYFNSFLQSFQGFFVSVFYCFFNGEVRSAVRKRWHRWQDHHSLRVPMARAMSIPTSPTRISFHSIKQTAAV
In short: (§1)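 CRFR-expressing cells + peptide vs vehicle; read-out cAMP (lysate assay) or CRE-linked reporter expression (luciferase, CAT, fluorescent protein, alkaline phosphatase, etc.). Signal compared against vehicle-treated cells.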

[2] = target: T2, CRF1R (Homo sapiens, UniProt P34998); assay: CRF1R agonist activation (EC50 / Emax), called comparative CRF binding; type: cell-based; conditions: for EC50: CRF1R EC50; for Emax: read-out: CRF1R Emax
T2 sequence (P34998 24-415): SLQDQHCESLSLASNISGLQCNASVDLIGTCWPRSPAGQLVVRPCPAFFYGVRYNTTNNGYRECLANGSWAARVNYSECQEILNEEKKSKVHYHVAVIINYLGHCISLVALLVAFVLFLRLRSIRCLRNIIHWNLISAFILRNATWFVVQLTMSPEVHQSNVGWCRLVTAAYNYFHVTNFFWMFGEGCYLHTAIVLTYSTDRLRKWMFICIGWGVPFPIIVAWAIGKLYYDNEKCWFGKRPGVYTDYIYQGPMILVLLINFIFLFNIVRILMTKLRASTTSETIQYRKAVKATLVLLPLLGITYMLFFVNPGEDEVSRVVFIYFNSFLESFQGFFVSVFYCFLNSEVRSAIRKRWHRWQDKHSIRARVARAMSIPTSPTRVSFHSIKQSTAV
In short: as §1

| Structure (SMILES) | EC50 [1] | Emax [1] | EC50 [2] | Emax [2] |
| --- | --- | --- | --- | --- |
| CC[C@H](C)[C@H](NC(=O)[C@@H](NC(=O)[C@H](CC(=O)O)NC(=O)[C@H](CC(C)C)NC(=O)[C@H](CC(C)C)NC(=O)[C@H](CC(C)C)NC(=O)[C@H](CCCNC(=N)N)NC(=O)[C@H](CC(N)=O)NC(=O)[C@H](CC(N)=O)NC(=O)[C@H](C)NC(=O)[C@H](C)NC(=O)[C@H](CCC(N)=O)NC(=O)[C@H](CCC(N)=O)NC(=O)[C@H](CCCCN)NC(=O)[C@H](CCC(=O)O)NC(=O)[C@H](CCCCN)NC(=O)[C@H](CCC(=O)O)NC(=O)[C@H](CCC(N)=O)NC(=O)[C@H](CCCCN)NC(=O)[C@H](CCC(=O)O)NC(=O)[C@@H](NC(=O)[C@H](CCC(=O)O)NC(=O)[C@@H](NC(=O)[C@H](CCSC)NC(=O)[C@H](CCCCN)NC(=O)[C@H](CCCNC(=N)N)NC(=O)[C@H](CC(C)C)NC(=O)[C@H](CC(C)C)NC(=O)[C@@H](NC(=O)[C@@H](NC(=O)[C@@H]1CCCN1C(=O)[C@H](CC(C)C)NC(=O)[C@H](CC(=O)O)NC(=O)[C@@H](NC(=O)[C@H](CO)NC(=O)[C@@H](NC(=O)[C@@H]1CCCN1C(=O)[C@@H]1CCCN1C(=O)CNC(=O)[C@@H]1CCC(=O)N1)[C@@H](C)CC)[C@@H](C)CC)[C@@H](C)O)[C@@H](C)CC)[C@@H](C)CC)[C@@H](C)CC)[C@@H](C)O)C(N)=O [compound 50] | 19 nM | 94% | > 1000 nM | 42% |
| CC[C@H](C)[C@H](NC(=O)[C@@H](NC(=O)[C@H](CC(=O)O)NC(=O)[C@H](CC(C)C)NC(=O)[C@H](CC(C)C)NC(=O)[C@H](CC(C)C)NC(=O)[C@H](CCCNC(=N)N)NC(=O)[C@H](CC(N)=O)NC(=O)[C@H](CC(N)=O)NC(=O)[C@H](C)NC(=O)[C@H](C)NC(=O)[C@H](CCC(N)=O)NC(=O)[C@H](CCC(N)=O)NC(=O)[C@H](CCCCN)NC(=O)[C@H](CCC(=O)O)NC(=O)[C@H](CCCCN)NC(=O)[C@H](CCC(=O)O)NC(=O)[C@H](CCC(N)=O)NC(=O)[C@H](CCCCN)NC(=O)[C@H](CCC(=O)O)NC(=O)[C@@H](NC(=O)[C@H](CCC(=O)O)NC(=O)[C@@H](NC(=O)[C@@H](NC(=O)[C@H](CCCCN)NC(=O)[C@H](CCCNC(=N)N)NC(=O)[C@H](CC(C)C)NC(=O)[C@H](CC(C)C)NC(=O)[C@@H](NC(=O)[C@@H](NC(=O)[C@@H]1CCCN1C(=O)[C@H](CC(C)C)NC(=O)[C@H](CC(=O)O)NC(=O)[C@@H](NC(=O)[C@H](CO)NC(=O)[C@@H](NC(=O)[C@@H]1CCCN1C(=O)[C@@H]1CCCN1C(=O)CNC(=O)[C@@H]1CCC(=O)N1)[C@@H](C)CC)[C@@H](C)CC)[C@@H](C)CC)[C@@H](C)CC)C(C)C)[C@@H](C)CC)[C@@H](C)CC)[C@@H](C)O)C(N)=O [compound 297] | – | 88.3% | – | 27.2% |
| CC[C@H](C)[C@H](NC(=O)[C@@H](NC(=O)[C@H](CC(=O)O)NC(=O)[C@H](CC(C)C)NC(=O)[C@H](CC(C)C)NC(=O)[C@H](CC(C)C)NC(=O)[C@H](CCCNC(=N)N)NC(=O)[C@H](CC(N)=O)NC(=O)[C@H](CC(N)=O)NC(=O)[C@H](C)NC(=O)[C@H](C)NC(=O)[C@H](CCC(N)=O)NC(=O)[C@H](CCC(N)=O)NC(=O)[C@H](CCCCN)NC(=O)[C@H](CCC(=O)O)NC(=O)[C@H](CCCCN)NC(=O)[C@H](CCC(=O)O)NC(=O)[C@H](CCC(N)=O)NC(=O)[C@H](CCCCN)NC(=O)[C@H](CCC(=O)O)NC(=O)[C@@H](NC(=O)[C@H](CCC(=O)O)NC(=O)[C@@H](NC(=O)[C@H](CCSC)NC(=O)[C@H](CCCCN)NC(=O)[C@H](CCCNC(=N)N)NC(=O)[C@H](CC(C)C)NC(=O)[C@H](CC(C)C)NC(=O)[C@H](Cc1c[nH]c2ccccc12)NC(=O)[C@H](CCC(N)=O)NC(=O)[C@@H]1CCCN1C(=O)[C@H](CC(C)C)NC(=O)[C@H](CC(=O)O)NC(=O)[C@@H](NC(=O)[C@H](CO)NC(=O)[C@@H](NC(=O)[C@@H]1CCCN1C(=O)[C@@H]1CCCN1C(=O)CNC(=O)[C@@H]1CCC(=O)N1)[C@@H](C)CC)[C@@H](C)CC)[C@@H](C)CC)[C@@H](C)CC)[C@@H](C)O)C(N)=O [compound 213] | 22.3 nM | 99% | ≥ 1000 nM | 76% |
